According to patent publication US7153495B2, “Fragrance friendly and cost effective antiperspirant actives and method of making the same” (Reheis, Inc., priority 2004, dated 2006):

Experiment: Fragrance compatibility study (colour formation with fragrances, Macbeth Color Spectrophotometer and visual)
Assay type: physicochemical
Details: for ΔRG @ 45° C. / ΔYB @ 45° C.: 0.75% perfume, 20% active
Procedure: It is known that fragrances in antiperspirants can discolor over time due to the acidic nature and high transition metals concentration especially Fe, Cr, Co, Mn, Cu, and Ni. It is also known that glycine can initiate Schiff base reaction with aldehydes present in fragrances. […] Fragrance dispersions were prepared as follows: 0.75% perfume, 1.0% Arlasolve 200, 20% antiperspirant active (on an anhydrous basis), q.s. DI water. Samples were stored at 45° C. for four weeks and were analyzed for color visually as well as using Macbeth Color Spectrophotometer. Aluminum zirconium tetrachlorohydrex was compared against aluminum zirconium penta and octa salts of Examples 1 and 2. Color was measured as ΔYB (yellow blue) and ΔRG (red green) for all the fourteen fragrances and three actives.

[1] = average of 14 fragrances, four weeks at 45° C.
[2] = fragrance AC 10278/498988, four weeks at 45° C.
[3] = fragrance Bell J-8381, four weeks at 45° C.
[4] = fragrance Drom99-920, four weeks at 45° C.
[5] = fragrance FFS 52847, four weeks at 45° C.
[6] = fragrance Firm. 430–507, four weeks at 45° C.
[7] = fragrance Noville AN 119738, four weeks at 45° C.
[8] = fragrance Q-26238, four weeks at 45° C.
[9] = fragrance Q-26239, four weeks at 45° C.
[10] = fragrance Q-26240, four weeks at 45° C.
[11] = fragrance Q-26241, four weeks at 45° C.
[12] = fragrance Q-26242, four weeks at 45° C.
[13] = fragrance Quest Q-14072, four weeks at 45° C.
[14] = fragrance SM 25105D, four weeks at 45° C.
[15] = fragrance Takasago RM 1595, four weeks at 45° C.

For “aluminum zirconium penta salt [Example 2]”, the “discoloration compared with tetrasalt” value (14 fragrances, four weeks of shelf aging at 45° C., visual and instrumental) was “less discoloration”, the “ΔRG @ 45° C., Average” value [1] was 6.8 and the “ΔYB @ 45° C., Average” value [1] was 8.21. The “ΔRG @ 45° C.” value [2] was 2.30, the “ΔYB @ 45° C.” value [2] was 4.40 and the “ΔRG @ 45° C.” value [3] was 3.19. The “ΔYB @ 45° C.” value [3] was 5.36, the “ΔRG @ 45° C.” value [4] was 2.53 and the “ΔYB @ 45° C.” value [4] was 4.16. For the same substance, the “ΔRG @ 45° C.” value [5] was 6.18, the “ΔYB @ 45° C.” value [5] was 6.70 and the “ΔRG @ 45° C.” value [6] was 12.66. The “ΔYB @ 45° C.” value [6] was 13.52, the “ΔRG @ 45° C.” value [7] was 12.92 and the “ΔYB @ 45° C.” value [7] was 13.19. The “ΔRG @ 45° C.” value [8] was 4.69, the “ΔYB @ 45° C.” value [8] was 6.31 and the “ΔRG @ 45° C.” value [9] was 4.93. The “ΔYB @ 45° C.” value [9] was 8.07, the “ΔRG @ 45° C.” value [10] was 4.92 and the “ΔYB @ 45° C.” value [10] was 5.64. The “ΔRG @ 45° C.” value [11] was 3.71, the “ΔYB @ 45° C.” value [11] was 6.60 and the “ΔRG @ 45° C.” value [12] was 6.42. For the same substance, the “ΔYB @ 45° C.” value [12] was 10.32, the “ΔRG @ 45° C.” value [13] was 11.30 and the “ΔYB @ 45° C.” value [13] was 12.08. The “ΔRG @ 45° C.” value [14] was 9.07, the “ΔYB @ 45° C.” value [14] was 8.65 and the “ΔRG @ 45° C.” value [15] was 10.38. For the same substance, the “ΔYB @ 45° C.” value [15] was 9.94.
